Experimental data from PubChem BioAssay AID925 (National Center for Advancing Translational Sciences (NCATS), 2007).
The list shows a part of the results, in another mix than the full data. Activity calls are given as the source filed them. The call rests on the fitted dose curve; in most records, active means well fitted activation curve with a large enough effect; inconclusive means small, poorly fitted or top-dose-only effect; inactive means flat fitted curve, though single readings scatter.

Assay: qHTS Assay for Modulators of Hemoglobin Beta Chain Splicing; further: 0% is about no effect
Settings: HBB splicing reporter cell assay, EGFP reporter with mutant IVS2-654 intron, normalised to 500 nM splice-correcting PNA
Source text: NIH Chemical Genomics Center [NCGC]
NIH Molecular Libraries Screening Centers Network [MLSCN]
PI Name: Dr. Ryszard Kole
Modulation of Alternative Splicing as Therapy
Abnormal splicing is associated with a number of diseases, including cancer and genetic diseases such as cystic fibrosis, muscular dystrophy and beta-thalassemia. Alteration of disease associated splicing patterns provides a promising target for treatment. […] Mutations in the second intron of the beta-globin gene at positions are clinically relevant and cause mis-splicing which results in an out of frame gene product.
EGFP-654 and 705 HeLa Cells as screen system.
HeLa cell lines were stably transfected with a construct in which the EGFP (enhanced green fluorescent protein) cDNA was interrupted by the second intron of the beta-globin gene (IVS2-654). The ISV2 intron contains mutations which cause mis-splicing of EGFP and premature termination of EGFP which results in a nonfluorescent protein product. […] Expression of the transgene was driven by the CMV promoter. We concluded that a low molecular weight compound, which restored correct splicing of intron 2 would also generate functional EGFP protein, resulting in a fluorescent signal. Thus, the HeLa cells that express the EGFP-654 construct can be used for high throughput screening of a chemical library.
NCGC Assay Protocol Summary:
High Throughput Screening. Freshly thawed HeLa EGFP-654 cells were seeded in 5 ul of optimem media (Invitrogen) containing 2 % fetal calf serum (Hyclone) and 1x penicillin/streptomycin (Invitrogen) at a concentration of 500 cells per well in 1536-well plates. Cells were incubated overnight at 37C in 5% CO2. The next day, cells were treated with DMSO, 500 nM antisense ISV2 654 PNA control oligo, or library compound and allowed to grow at 37C in 5% CO2 for 2 days. The PNA oligo blocked the mutation site in the intron and allowed proper (wild type) splicing to occur, resulting in full length EGFP expression and also allowed for optimization of the assay parameters. Plates were read in the Acumen Explorer (TTP Labtech) using 488 nm laser excitation and 500-520 nm emission PMT filter in a 1 x […] capture mode. Fluorescnet Fluorescent objects ranging in size from […] were measured and the total peak GFP intensity for each well was used for data analysis.
Keywords: Thalassemia, beta-thalassemia, beta-globin, EGFP, ISV2 654, ISV2 705, SSO, PNA, antisense, splicing, MLSMR, MLSCN, NIH Roadmap, qHTS, NCGC

[1] = at 46.1 µM (top of the series) unless noted

## [N-]=[N+]=NCC(N)=O
[1]
  activation: inactive: 1.34% [at 9.22 µM]

## O=[As]c1ccc(S(=O)(=O)NCCO)cc1 (stereo unspecified)
[1]
  activation: inactive: 2.76% [at 9.22 µM]

## NC(=O)Nc1cc([As](=O)(O)O)cc(I)c1O
[1]
  activation: inactive: 2.78% [at 9.22 µM]

## O=C(OC1CN2CCC1CC2)C12CC3CC(CC(C3)C1)C2 (stereo unspecified)
[1]
  activation: inactive: 0.773% [at 0.369 µM]

## O=C(O)[C@@H](O)c1ccc([As](=O)(O)O)cc1
[1]
  activation: inactive: 3.57% [at 9.22 µM]

## O=C(COc1ccccc1)OC1CN2CCC1CC2 (stereo unspecified)
[1]
  activation: inactive: 0.358%

## COP1(=S)c2c(C)nn(CCC#N)c2N=C(c2ccc(F)cc2)N1C (stereo unspecified)
[1]
  activation: inactive: -2.31%

## CN(N=O)C(=N)N[N+](=O)[O-]
[1]
  activation: inactive: 0.212%

## O=P1(Nc2ccc(Br)cn2)COc2ccccc2OC1
[1]
  activation: inactive: 4.94% [at 0.369 µM]

## O=P1(Nc2ncccn2)COc2ccccc2OC1
[1]
  activation: inactive: 3.47% [at 57.5 µM]

## Cc1nn(-c2ccccc2)c2c1P(=O)(N1CCOCC1)N(C)C(c1ccccc1)=N2 (stereo unspecified)
[1]
  activation: inactive: -0.39%

## CN(C(=O)Cc1ccc(Cl)c(Cl)c1)[C@@H]1CCCC[C@H]1N1CCCC1
[1]
  activation: inactive: 0.561% [middle of 4 runs]

## Clc1n[nH]nc1-c1nn[nH][15n]1
[1]
  activation: inactive: 0.964%

## CN(CCCl)Cc1cc(Cl)c(NC2=NCCN2)c(Cl)c1
[1]
  activation: inactive: -3.23%

## O=P1(Nc2ccccn2)COc2ccccc2OC1
[1]
  activation: inactive: 1.75% [at 0.369 µM]

## CN(C(=O)Cc1ccc(Cl)c(Cl)c1)[C@@H]1CC[C@@]2(CCCO2)C[C@H]1N1CCCC1
[1]
  activation: inactive: -0.174%

## O=C(CC(=O)c1ccccc1)O[C@H]1CN2CCC1CC2
[1]
  activation: inactive: 3.21% [at 9.22 µM]

## NS(=O)(=O)Cc1ccc([As](=O)(O)O)cc1
[1]
  activation: inactive: 3.25% [at 9.22 µM]

## CCOP1(=S)c2c(C)nn(CCC#N)c2N=C(c2ccc(F)cc2)N1C (stereo unspecified)
[1]
  activation: inactive: -4.69%

## NC(=O)Nc1ccc([As](=O)(O)O)cc1
At 20.6 µM (top of the series)
  activation: inactive: -1.95%
At 46.1 µM (top of the series)
  activation: inactive: 0.6%

## O=[As](O)(O)c1ccc([As](=O)(O)O)cc1
[1]
  activation: inactive: 0.989% [at 9.22 µM]

## CCOP1(=S)c2c(C)nn(CCC#N)c2N=C(c2ccccc2F)N1C (stereo unspecified)
[1]
  activation: inactive: -0.187% [at 57.5 µM]

## O=P(Nc1nccs1)(c1ccccc1)c1nc2ccccc2s1 (stereo unspecified)
[1]
  activation: inactive: 6.07%

## COC(=O)c1cc2c(s1)N=C(c1ccccc1)N(C)P2(=O)N1CCOCC1 (stereo unspecified)
[1]
  activation: inactive: -0.181% [at 57.5 µM]

## O=P1(Nc2nc3ccc(Cl)cc3s2)COc2ccccc2O1 (stereo unspecified)
[1]
  activation: inactive: 9.81% [at 0.369 µM]

## C[C@@H](O)COc1ccc([As](=O)(O)O)cc1N
[1]
  activation: inactive: 2.09% [at 9.22 µM]

## CN1CCC[C@H](OC(=O)C(c2ccccc2)c2ccccc2)C1
[1]
  activation: inactive: -0.366% [at 9.22 µM]

## c1nnnn1CCn1cnnn1
[1]
  activation: inactive: 1.71% [at 1.84 µM]

## O=P(Nc1nccs1)(c1ccccc1)c1ccccc1
[1]
  activation: inactive: 3.16% [at 57.5 µM]

## O=C(OC1CN2CCC1CC2)c1cccc(Cl)c1 (stereo unspecified)
[1]
  activation: inactive: -1.94% [at 0.369 µM]

## [N-]=[N+]=Nc1ccc([As](=O)(O)O)cc1
[1]
  activation: inactive: 4.44% [at 9.22 µM]

## Cc1cc([N+](=O)[O-])cc([N+](=O)[O-])c1O
[1]
  activation: inactive: -0.503%

## CN(C(=O)Cc1ccccc1)[C@@H]1CC[C@@]2(CCCO2)C[C@H]1N1CCCC1
[1]
  activation: inactive: 0.423%

## O=C(CO)Nc1ccc([As](=O)(O)O)cc1
[1]
  activation: inactive: -2.1% [at 9.22 µM]

## CCc1nc2c(n1)c1c(non1O)c1c2no[n+]1[O-]
[1]
  activation: inactive: 0.0382%

## NCC[C@@H](N)CSP(=O)(O)O
[1]
  activation: inactive: 1.14% [at 9.22 µM]

## Cc1c2non([O-])c-2c(C)[n+](=O)[n+]1[O-]
[1]
  activation: inactive: -4.69%

## O=[N+]([O-])c1ccc(C[As](=O)(O)O)cc1
[1]
  activation: inactive: 0.967% [at 9.22 µM]

## C(Cc1nn[nH]n1)c1nn[nH]n1
[1]
  activation: inactive: 3.78% [at 9.22 µM]

## [N-]=[N+]=NCC(O)CN=[N+]=[N-] (stereo unspecified)
[1]
  activation: inactive: -1.81% [at 9.22 µM]
